Ab-91 heavy chain CDR variants: yeast mating affinities

All variants were tested on one target, the spike HR2 peptide PDVDLGDISGINAS (SARS-CoV-2).

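The starting antibody came from a phage panning campaign against this peptide. Library AAYL51 holds single substitutions and randomly drawn double and triple substitutions in the CDRs. AlphaSeq pools MATa yeast showing the antibodies with MATalpha yeast showing the peptide. Binding brings cells together so that they mate, and sequencing counts the barcode pairs among the diploids. The ratio of observed to expected reads was calibrated, replicate by replicate, on BCL2-family standards whose Kd was known from biolayer interferometry. Mating was done three times.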

Parent scFv Ab-91: VL joined to VH by three GGGGS repeats. Changes lie in the heavy chain CDRs alone.
VL: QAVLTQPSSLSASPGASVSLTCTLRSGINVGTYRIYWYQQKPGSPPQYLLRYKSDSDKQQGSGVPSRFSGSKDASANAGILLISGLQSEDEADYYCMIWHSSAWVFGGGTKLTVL
VH: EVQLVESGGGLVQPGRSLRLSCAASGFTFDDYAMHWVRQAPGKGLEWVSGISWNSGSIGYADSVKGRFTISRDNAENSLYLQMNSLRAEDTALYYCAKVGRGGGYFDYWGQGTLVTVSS

The parent's heavy chain CDRs are GFTFDDYAMH, GISWNSGSIGYADSVK, VGRGGGYFDY; each variant's own CDRs replace them letter for letter.
Affinities are written as log10 Kd with Kd in nM; a lower number is a better binder.
A mean of the replicates is given; it leaves out those without a signal.
"nd" marks a missing value. The strain was present, yet no cells mated with the target were sequenced in that replicate, which points to weak or no binding.
Three control strains display no target. For library AAYL51, 21% of the pairings with them gave a signal, with a median of 4.54 and one signal in twenty below 3.26, so weak values seen in few replicates may be background. The control count says in how many pairings with the empty strains this scFv gave a signal, with their mean in brackets.

| # | CDR-H1 | CDR-H2 | CDR-H3 | replicates, log10 nM | log10 Kd (nM), mean | control signals |
|---|---|---|---|---|---|---|
| 1 | GFTFDDYAHH | GISWNSGSIGYADSVK | VGRGGGYFDR | nd / nd / nd | nd | 0 of 9 |
| 2 | GFTFDDYAMH | GISWNSSSIGYADAVK | VGRGGGYFDY | 3.67 / nd / 2.53 | 3.10 | 0 of 9 |
| 3 | GFTFDDYAMH | GISWNAGSIGQADSVK | VGRGGGYFDY | 3.65 / 3.58 / nd | 3.61 | 0 of 9 |
| 4 | GFEFDDYAMH | GISWNAGSIGYADSVD | VGRGGGYFDY | 1.11 / 1.09 / 0.65 | 0.95 | 5 of 9 (4.86) |
| 5 | GFTFDDYAMH | GISWNIGSIGPADSVK | VGRGYGYFDY | nd / nd / nd | nd | 0 of 9 |
| 6 | GFTFDSYAMH | GISWNSGSIGYADSVK | VGRGGGTFLY | 2.03 / 2.03 / 1.80 | 1.95 | 0 of 9 |
| 7 | GFTFDDYAMH | GISWWSGSIGQADSVK | VGGGGGYFDY | nd / 6.30 / nd | 6.30 | 4 of 9 (5.20) |
| 8 | GHTFDDYAMH | GSSWNSGSIGYADSAK | VGRGGGYFDY | nd / nd / nd | nd | 0 of 9 |
| 9 | GFTFDDYAMD | TISWNSGSIGYADSRK | VGRGGGYFDY | nd / nd / nd | nd | 0 of 9 |
| 10 | GFTNDDYAMH | PISWNSGSIGYADGVK | VGRGGGYFDY | nd / nd / nd | nd | 2 of 9 (4.65) |
| 11 | GFTFDDYANH | GISWNSGSIGYADMVW | VGRGGGYFDY | 3.11 / nd / nd | 3.11 | 0 of 9 |
| 12 | GFTFDDEAMH | GISWGSGSIGYADSVK | VGRGGQYFDY | 4.46 / nd / 4.08 | 4.27 | 1 of 9 (3.88) |
| 13 | GFTFDDYAMH | GPSWNNGSIGYADSVK | VGRGGGTFDY | nd / nd / 4.84 | 4.84 | 3 of 9 (4.71) |
| 14 | GFTSDDYAMH | GIQWNSGSIGYADSVK | VGNGGGYFDY | 5.65 / 6.05 / 5.85 | 5.85 | 4 of 9 (5.06) |
| 15 | GFTFDPYLMH | GISWNSFSIGYADSVK | VGRGGGYFDY | 1.24 / 1.22 / 1.07 | 1.18 | 6 of 9 (4.47) |
| 16 | GFTFDDYAMH | GISWNSGSIGYAKSVK | VGCGGGYFDY | nd / nd / nd | nd | 0 of 9 |
| 17 | AFTFDDYAMH | GISWNSGSIGYADSVK | VGRGRGYYDY | 4.03 / 5.76 / nd | 4.90 | 4 of 9 (4.27) |
| 18 | GFTFDDYAMH | GISWSSGSIGYADSVK | VGRHGLYFDY | nd / nd / nd | nd | 0 of 9 |
| 19 | GFTFDDYEMH | IISWNSGSIGYADSVK | VGRGGAYFDY | nd / 3.35 / nd | 3.35 | 0 of 9 |
| 20 | GTTFDQYAMH | GISWNSGSIGYADSVK | VFRGGGYFDY | 3.09 / nd / 3.25 | 3.17 | 2 of 9 (2.26) |
| 21 | GFTFDGYAMH | GISWNSGSIGYADSGK | VGRGGGYFDS | 4.50 / 4.34 / 4.96 | 4.60 | 4 of 9 (4.41) |
| 22 | GSTFDDYAMH | GISWNSGMIGYADSSK | VGRGGGYFDY | 4.61 / nd / nd | 4.61 | 1 of 9 (4.31) |
| 23 | GFTFEDYAMH | GIAWNSGHIGYADSVK | VGRGGGYFDY | nd / nd / nd | nd | 0 of 9 |
| 24 | GMTFDDYAMH | GIVWNSYSIGYADSVK | VGRGGGYFDY | nd / nd / nd | nd | 5 of 9 (4.47) |
| 25 | GFTFDDYVMH | GISWNSGSIGYADSVK | VGRGGGYYMY | 4.48 / nd / 3.79 | 4.14 | 1 of 9 (3.54) |
| 26 | GFTFDDYAMH | GIMWNSGSIGYADSVK | VGRGRGDFDY | 3.75 / 3.92 / 4.34 | 4.00 | 2 of 9 (3.99) |
| 27 | GFTFDDYAMH | AISCNSGSIGYADSVN | VGRGGGYFDY | 4.31 / nd / 4.03 | 4.17 | 5 of 9 (4.54) |
| 28 | GFTEDDYAMH | GISWNSGSLGYADSVK | VGRGGGWFDY | nd / 4.11 / nd | 4.11 | 0 of 9 |
| 29 | GFTFDDYAMH | GISWNSGSIGYADSVK | YGRAGGIFDY | 0.77 / 0.57 / 0.18 | 0.51 | 2 of 9 (3.87) |
| 30 | GFSFDDYAMH | GISWNSGSIGHADSVK | VGRGGGIFDY | 4.64 / nd / 4.31 | 4.48 | 0 of 9 |
| 31 | GFTFDDDAMH | GISWNSGMIGYADRVK | VGRGGGYFDY | nd / nd / nd | nd | 0 of 9 |
| 32 | GFTFDDYAMH | GISWNSISRGYADSAK | VGRGGGYFDY | nd / nd / nd | nd | 1 of 9 (4.44) |
| 33 | IFTFDDYAMH | GISWNSGSIGYADSGK | VGRGGGYFDY | nd / nd / nd | nd | 1 of 9 (3.99) |
| 34 | GFCFDDYAMH | EISWNSGSIGYADVVK | VGRGGGYFDY | nd / nd / nd | nd | 0 of 9 |
| 35 | GATFDDYAMH | TISWNSGSIGYADSVK | VARGGGYFDY | nd / nd / nd | nd | 1 of 9 (4.25) |
| 36 | GFTFDDYARH | GISWNSGSIGYADSSK | RGRGGGYFDY | nd / nd / nd | nd | 1 of 9 (3.27) |
| 37 | GFTNDQYAMH | GISWNSGSIGYADSVK | VGRYGGYFDY | 2.43 / 2.56 / 2.43 | 2.48 | 7 of 9 (5.14) |
| 38 | GFTFDDYAMH | FASWNSGSIGYADSVK | VCRGGGYFDY | nd / 5.63 / nd | 5.63 | 3 of 9 (3.72) |
| 39 | GFTFDDYAMH | GISWNSGLIGYAYSVK | VGTGGGYFDY | nd / nd / nd | nd | 0 of 9 |
| 40 | GFTFDDYKMH | GISWNSGSIGYADPVK | VGRGGGCFDY | nd / nd / nd | nd | 0 of 9 |
| 41 | GFTFDTYAMH | GISWNHGSIGYADSVK | VGRGGGYFDY | 4.48 / 3.35 / 5.01 | 4.28 | 4 of 9 (4.43) |
| 42 | GFTYDDYAMH | GISWNSNSIGYADSVK | DGRGGGYFDY | nd / nd / nd | nd | 0 of 9 |
| 43 | GFTFDDYAMH | GISWNSGRIEYADSVC | VGRGGGYFDY | nd / nd / nd | nd | 0 of 9 |
| 44 | GFTFDDEAMH | GISWNSGSIGYADSVK | VGRGGGYGDM | 5.00 / nd / nd | 5.00 | 1 of 9 (2.35) |
| 45 | GFTFDDYAMH | GISWNSGSIRFADKVK | VGRGGGYFDY | nd / nd / nd | nd | 1 of 9 (4.46) |
| 46 | GFAFDDYAMW | GISWNSGSIVYADSVK | VGRGGGYFDY | nd / nd / nd | nd | 4 of 9 (5.14) |
| 47 | GFTFDDYEMM | GISWTSGSIGYADSVK | VGRGGGYFDY | 5.37 / 4.77 / 4.91 | 5.02 | 5 of 9 (4.87) |
| 48 | GFTFDDYAMH | GISWNSGSTGYADSLK | VGRGGGYFDW | nd / nd / nd | nd | 1 of 9 (3.57) |

The opening 3 entries, copied out:

| CDR-H1 | CDR-H2 | CDR-H3 | replicates, log10 nM | log10 Kd (nM), mean | control signals |
|---|---|---|---|---|---|
| GFTFDDYAHH | GISWNSGSIGYADSVK | VGRGGGYFDR | nd / nd / nd | nd | 0 of 9 |
| GFTFDDYAMH | GISWNSSSIGYADAVK | VGRGGGYFDY | 3.67 / nd / 2.53 | 3.10 | 0 of 9 |
| GFTFDDYAMH | GISWNAGSIGQADSVK | VGRGGGYFDY | 3.65 / 3.58 / nd | 3.61 | 0 of 9 |

Reference: Engelhart et al. 2022, doi:10.1038/s41597-022-01779-4. File: FLAb, binding data.